Results taken from patent EP0629400B1, “Idebenone compositions for treating Alzheimer's disease” (TAKEDA CHEMICAL INDUSTRIES, LTD., priority 1993, dated 1994).

How the values were obtained:
rats = conditions: rat, in vivo
in vivo = conditions: rat, LD50 as an index of acute toxicity

In the case of COC1=C(OC)C(=O)C(CCCCCCCCCCO)=C(C)C1=O [idebenone, 6-(10-hydroxydecyl)-2,3-dimethoxy-5-methyl-1,4-benzoquinone], the “LD50 as an index of acute toxicity” value (rats) is reported as “about 10,000 mg/kg” and the LD50 (in vivo) is reported as > 10000 mg/kg.
